Results from PubChem BioAssay AID651658 (Broad Institute, 2012).
The entries are a selection whose mix differs from that of the whole data set. The source made the active and inactive calls.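 How the source made its calls: active means mean Tm shift, scaled 0 neutral to 100 positive control, at about 1.3% or above, every replicate too (limit read from the data); inconclusive means no clear call, values can overlap the other calls; inactive means the rest.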

Protein sequences, listed by entry. Tags and fused reporters are not part of them.
UniProt Q9HCT0, whole entry: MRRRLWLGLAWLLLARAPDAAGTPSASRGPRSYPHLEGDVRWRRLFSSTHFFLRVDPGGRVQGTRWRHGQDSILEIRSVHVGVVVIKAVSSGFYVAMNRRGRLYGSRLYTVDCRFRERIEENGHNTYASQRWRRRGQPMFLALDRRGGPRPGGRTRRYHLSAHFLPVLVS

What follows are molecules tested against Fibroblast growth factor 22 (Homo sapiens) (UniProt Q9HCT0) (assay: FGF22 ligand-induced thermal stabilization – biophysical, thermal shift, single point, FGF22 synaptogenesis inhibitor project, primary screen (AID 651658)). Details: recombinant FGF22 thermal shift, SYPRO orange fluorescence; at 9.99 µM; active compounds read high; percent of sucrose octasulfate shift, DMSO zero.

| Structure (SMILES) | activity (Tm shift, normalised) |
| --- | --- |
| CCC(=O)N(c1ccccc1)C1(COC)CCN(CCn2nnn(CC)c2=O)CC1 | inactive: 0.314% |
| CCC(=O)N(c1ccccc1)C1(COC)CCN(CCc2cccs2)CC1 | inactive: 0.486% |
